This is an account of results in PubChem BioAssay AID1718 (Vanderbilt High Throughput Screening Facility, 2009).

This is a selection; strong and weak results do not stand in their true shares. Inconclusive results are not listed. Active and inactive are the calls of the source.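 The calls were made as follows: active = thallium flux slope above the same plate's solvent-control mean plus 3 SD in both duplicate wells; inconclusive = duplicate wells that disagreed; inactive = the rest.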

The nature of this assay: native HEK Tl+ uptake effects, second counter-screen – HEK cells, counterscreen 2, counter-screen for KCC2 modulator project, confirmation (AID 1718).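 Also: run without ouabain in cells lacking the KCC2 cotransporter; slope of fluorescence scaled to its starting value between 10 and 20 s.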 Particulars: HEK293 parental, thallium flux FluoZin-2 fluorescence slope; at 10 µM. The essentials: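 Material: parental HEK cells. Medium: HBSS, 20 mM HEPES. Reagent: thallium sulfate stimulus, 12 mM in buffer, pH 7.3. Incubation: overnight cell culture at 37 °C, 48 min dye loading, compound before thallium. Signal: FluoZin-2 fluorescence kinetics. Read-out basis: thallium influx rate. Repeats: Per-replicate slope values.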
A general note: A counterscreen serves to expose hits that act by an unwanted route or on another target.
Turning to `O=c1c2cc([N+](=O)[O-])ccc2[nH]c2c([N+](=O)[O-])cc([N+](=O)[O-])cc12`, the thallium flux slope is inactive: 0.0105. On to `C[N+]1=C2C=CC=CC=C2SC12C([N+](=O)[O-])=CC([N+](=O)[O-])=C[C-]2[N+](=O)[O-]` (stereo not drawn), for which the thallium flux slope is active: 0.0222. Under `O=P(Nc1nc2ccc(Cl)cc2s1)(c1ccccc1)c1ccccc1` stands active: 0.0183.
